# Measurements taken from article PMC2717725 (Journal of medicinal chemistry, 2008).
# Target: CDK1/cyclin B
# Experiment: CDK1/cyclin B kinase assay
# Type: biochemical, starfish (Marthasterias glacialis)
# Details: read-out: CDK1 IC50, 15 μM ATP
row,SMILES,IC50 [nM]
1,Cl.O=C1Nc2cc(Br)ccc2/C1=C1/Nc2ccccc2/C1=N\OCCN(CCO)CCO [Compound 20],1000
2,"CN(C)CCO/N=C1/C(=C2/C(=O)Nc3cc(Br)ccc32)Nc2ccccc21 [Compound 5, (2′Z-3′E)-6-Bromoindirubin-3′-[O-(2-dimethylaminoethyl)-oxime]]",490
3,"CN(C)CCO/N=C1/C(=C2/C(=O)Nc3cc(Br)ccc32)Nc2ccccc21.Cl [Compound 16, (2′Z-3′E)-6-Bromoindirubin-3′-[O-(2-dimethylaminoethyl)oxime] Hydrochloride]",190
4,O=C1Nc2cc(Br)ccc2/C1=C1/Nc2ccccc2/C1=N\OCCN(CCO)CCO [Compound 9],600
5,"O=C1Nc2cc(Br)ccc2/C1=C1/Nc2ccccc2/C1=N\OCCN1CCN(CCO)CC1 [Compound 13, (2′Z-3′E)-6-Bromoindirubin-3′-(O-{2-[4-(2-hydroxyethyl)piperazin-1-yl]ethyl}oxime)]",600
